According to PubChem BioAssay AID652162 (Broad Institute, 2013):
The entries are a selection whose mix differs from that of the whole data set. Active and inactive are the calls of the source. No stated cut-off is given here; in the data, active means inhibition above about 10%; inactive means the rest.

biological target: Toxin B (Clostridioides difficile) (UniProt P18177); test: TcdB glycohydrolase inhibitors, primary screen, biochemical, single point, plate reader (AID 652162); conditions: TcdB glycohydrolase enzymatic assay, at 9.99 µM, hits give high values

Question: How did the inhibition turn out when `CCC(=O)N(c1ccccc1)C1(COC)CCN(CCc2cccs2)CC1` was run?
Answer: inactive: 0.026%

Question: How did the inhibition turn out when `CCC(=O)N(c1ccccc1)C1(COC)CCN(CCn2nnn(CC)c2=O)CC1` was run?
Answer: inactive: -0.962%
